Measured values from paper PMC9837035 (Nature Communications, 2023).
Positions count from the first letter of the chain named.

Legend:
NSD2 = molecular target: T1, NSD2 (Homo sapiens, UniProt O96028); experiment: Radioisotope-based methyltransferase assay (selectivity); settings: IC50, NSD2, 1 μM SAM
T1 sequence (O96028 1-1365): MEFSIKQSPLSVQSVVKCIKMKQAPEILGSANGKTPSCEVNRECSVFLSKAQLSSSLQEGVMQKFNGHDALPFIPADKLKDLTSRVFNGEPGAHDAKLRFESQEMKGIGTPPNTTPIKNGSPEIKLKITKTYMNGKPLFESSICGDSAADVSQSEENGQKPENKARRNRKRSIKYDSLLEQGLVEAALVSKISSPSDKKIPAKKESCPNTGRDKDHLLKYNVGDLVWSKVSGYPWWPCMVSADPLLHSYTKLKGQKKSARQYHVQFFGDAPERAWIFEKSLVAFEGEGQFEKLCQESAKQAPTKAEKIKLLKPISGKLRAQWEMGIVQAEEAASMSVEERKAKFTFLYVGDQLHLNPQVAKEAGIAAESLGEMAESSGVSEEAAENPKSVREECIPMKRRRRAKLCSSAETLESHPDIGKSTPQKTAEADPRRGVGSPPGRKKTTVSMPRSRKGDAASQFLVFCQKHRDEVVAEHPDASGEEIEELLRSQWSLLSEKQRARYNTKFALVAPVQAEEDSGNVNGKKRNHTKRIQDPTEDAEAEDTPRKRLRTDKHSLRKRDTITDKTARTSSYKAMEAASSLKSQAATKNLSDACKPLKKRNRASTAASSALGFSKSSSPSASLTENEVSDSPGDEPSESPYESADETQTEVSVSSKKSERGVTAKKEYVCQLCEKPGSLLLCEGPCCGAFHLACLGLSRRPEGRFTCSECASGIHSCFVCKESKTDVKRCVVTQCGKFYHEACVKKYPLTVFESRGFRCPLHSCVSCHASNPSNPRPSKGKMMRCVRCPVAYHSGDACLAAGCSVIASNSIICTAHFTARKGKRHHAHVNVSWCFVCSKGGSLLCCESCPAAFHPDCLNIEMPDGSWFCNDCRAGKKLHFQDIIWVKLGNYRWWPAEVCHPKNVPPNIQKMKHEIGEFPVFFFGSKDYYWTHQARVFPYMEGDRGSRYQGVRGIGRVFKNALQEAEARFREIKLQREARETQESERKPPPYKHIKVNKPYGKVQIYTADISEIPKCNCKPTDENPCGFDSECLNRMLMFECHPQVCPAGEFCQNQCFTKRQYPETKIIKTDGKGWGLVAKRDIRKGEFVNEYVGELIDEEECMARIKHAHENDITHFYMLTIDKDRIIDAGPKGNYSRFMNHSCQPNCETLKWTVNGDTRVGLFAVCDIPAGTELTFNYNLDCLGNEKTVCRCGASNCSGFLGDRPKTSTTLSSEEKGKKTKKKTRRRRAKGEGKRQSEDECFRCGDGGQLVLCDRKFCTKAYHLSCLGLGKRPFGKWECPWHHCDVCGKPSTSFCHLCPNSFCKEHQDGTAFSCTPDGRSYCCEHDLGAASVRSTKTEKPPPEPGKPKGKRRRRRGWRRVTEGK

NSD2 (E1099K) = molecular target: T2, NSD2 (E1099K) (Homo sapiens, UniProt O96028, E1099K); experiment: as above; settings: 1 μM SAM
T2 sequence (O96028 1-1365 E1099K): T1 sequence (O96028 1-1365) with E1099K

**Q.** With `Nc1ncnc2c1ncn2[C@@H]1O[C@H](CSCC[C@H](N)C(=O)O)[C@@H](O)[C@H]1O` [SAH, S-(5'-Adenosyl)-L-homocysteine, reference compound] as the compound, how does the IC50 (NSD2) read?
**A.** 3.3 µM

**Q.** And the IC50 (NSD2 (E1099K))?
**A.** 6.5 µM
